From article PMC4284768, “The Study of NADPH-Dependent Flavoenzyme-Catalyzed Reduction of Benzo[1,2-c]1,2,5-oxadiazole N-Oxides (Benzofuroxans)” (2014)

Chains of the proteins cited; added tags and fusions are not shown. Residues count along the entry.
UniProt P05982, 2-274 limits assumed: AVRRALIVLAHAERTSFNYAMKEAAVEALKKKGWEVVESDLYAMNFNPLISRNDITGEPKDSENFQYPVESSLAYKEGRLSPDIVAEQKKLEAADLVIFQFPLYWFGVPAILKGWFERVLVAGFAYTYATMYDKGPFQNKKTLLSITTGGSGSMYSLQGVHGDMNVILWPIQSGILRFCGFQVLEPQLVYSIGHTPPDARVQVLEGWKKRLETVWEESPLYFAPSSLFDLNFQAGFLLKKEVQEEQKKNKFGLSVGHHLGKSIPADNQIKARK

Columns and labels:
[1] = target: T1, NAD(P)H:quinone oxidoreductase (NQO1) (Rattus norvegicus, UniProt P05982); test: Steady-state kinetics of reduction by NAD(P)H:quinone oxidoreductase (NADPH oxidation); settings: pH 7.0, 25 °C, NADPH 150 µM
Method: The determined initial rates of the reduction of the whole set of BFXs by NQO1 followed the complete hyperbolic dependence upon concentrations of the compounds, varying in the range of 12.5–400 µM (data not shown). […] The steady-state kinetic measurements of the enzymatic reduction of BFXs were carried out spectrophotometrically applying Lambda 25 (PerkinElmer, Waltham, MA, USA) or Carry 60 (Agilent Technologies, Santa Clara, CA, USA) UV-VIS spectrophotometers in 0.1 M K-phosphate buffer solution (pH 7.0) containing 1 mM EDTA, at 25 °C. The initial enzymatic rates were monitored according to NADPH oxidation at 340 nm (∆ε340 = 6.22 mM^−1·cm^−1), using 1.0 or 0.2 cm optical path cells, and corrected for the formation of 340 nm-absorbing products after recording their spectra in NADPH-regeneration system (10 U/mL glucose-6-phosphate dehydrogenase, 10 mM glucose-6-phosphate, and 15–20 μM NADPH). For certain BFXs, the reduction of the compounds was measured following NADPH oxidation at wavelengths of isosbestic points of their absorbance spectra, obtained in the NADPH-regeneration system, i.e., at 305 nm (∆ε305 = 2.45 mM^−1·cm^−1) for 5-Cl-benzofuroxan, 350 nm (∆ε350 = 5.64 mM^−1·cm^−1) for 5-methoxy-benzofuroxan, 370 nm (∆ε370 = 2.60 mM^−1·cm^−1) for 5-ethoxybenzofuroxan, and 340 nm (∆ε340 = 6.22 mM^−1·cm^−1) for benzodifuroxan. The rates were additionally corrected for the intrinsic NADPH-oxidase activity of P-450R (0.11 s^−1) and NQO1 (0.05 s^−1). In separate experiments, the reduction of cytochrome c (50 μM) in the presence of NADPH and BFXs was measured spectrophotometrically according to an increase in absorbance at 550 nm by using ∆ε550 = 20.0 mM^−1·cm^−1. BFX-mediated oxygen uptake was monitored polarographically by Clark electrode (Digital Model 10, Rank Brothers Ltd., Cambridge, UK), at 25 °C. […]

[2] = experimental; ref [16],[24]; cited from earlier work
[3] = target: T1, NAD(P)H:quinone oxidoreductase (NQO1); settings: read-out: Ki, inhibition constant of NQO1; NACs; ref [20]; cited from earlier work
[4] = target: T1, NAD(P)H:quinone oxidoreductase (NQO1); test: Inhibition of NQO1 quinone reductase reaction (menadione-mediated reduction of cytochrome c); settings: BFXs, 4 µM menadione, 50 µM cytochrome c
Description: In an attempt to predict other possible factors which may influence the reactivity of BFXs, we examined the inhibition of NQO1 by BFXs in NAD(P)H:quinone reductase reaction of NQO1 by measuring the initial rates of menadione-mediated reduction of cytochome c. This may provide some information about the character of the compounds binding to the active center of the enzyme ([19, 20], and references therein).
The inhibition of NQO1 by BFXs was examined by measuring the initial rates of 2-methyl-1,4-naphthoquinone-mediated reduction of 50 μM cytochrome c at 550 nm (∆ε550 = 19.2 mM^−1·cm^−1), in the presence of 4 μM 2-methyl-1,4-naphthoquinone, 10–100 μM NADPH, and various fixed concentrations of BFXs as inhibitors. […]
where Eo and Er are the oxidized and reduced enzyme forms, respectively, kcat/Km is the apparent second-order rate constant of NADPH oxidation, Ki is the inhibition constant, and β parameter represents the completeness of enzyme inhibition (0 ≤ β ≤ 1). Based upon this scheme, the hyperbolic dependence of kcat/Km, expressed as (kcat/Km)0/(kcat/Km) ratio on inhibitor concentrations is obtained (Equation (9)): […]
In this study, the Ki and εmax values were determined by fitting the experimental data to the standard hyperbolic expression of the inhibition degree (εI) (=1 − (kcat/Km)/(kcat/Km)0) versus [I] […]

SMILES | kcat, catalytic constant of reduction by NQO1 [1] | E^1_7, single-electron reduction potential [2] | Ki [3] | εmax, maximal degree of inhibition of NQO1 [4] | Ki ([4]; read-out: Ki, inhibition constant of NQO1, competitive with respect to NADPH)
O=[N+]([O-])c1cccc([N+](=O)[O-])c1 | 0.3 s⁻¹ | −0.345 V |  |  | 
Cc1c([N+](=O)[O-])cc([N+](=O)[O-])cc1[N+](=O)[O-] | 1.0 s⁻¹ | −0.253 V | 80 µM |  | 
[O-][n+]1onc2c1c1no[n+]([O-])c1c1no[n+]([O-])c21 | 2.6 ± 0.3 s⁻¹ |  |  | 100% | 46 µM

Like-named read-outs stand apart in the source and are kept apart here. Some compounds may have been tested in ways that are not shown here.
